# Screening data: PubChem, National Center for Advancing Translational Sciences (NCATS)
# Compounds with a hit are over-represented: about 0.43% of the library has one in this group of screens.
# EPAC2 antagonist: antagonists of human EPAC2; Q8WZA2; EPAC2 GEF exchange of Rap1B-BODIPY-GDP, fluorescence; Potency, µM (titrated, usually from 114 µM), without a hit: top-dose activity, negative = inhibition, most hits filed as inhibitors; 360,000 tested, 0.18% active; further: on the % scale 0 is the no-effect control and ±100 the full control effect; nearly all actives have a fitted effect of over 45% in size
# Rango complex inh: inhibitors of Rango-importin beta complex formation | Rango CFP/YFP FRET sensor + importin beta, 45 min | Potency, µM (titrated, usually from 92.2 µM), without a hit: at the highest dose inhibition of complex formation | 340,000 tested, 0.031% active | Q14974; calls by dose curve;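 further: 0% = DMSO wells and 100% = buffer wells lacking importin beta; nearly all actives have a fitted effect of over 15% in size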
#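 FRET biosensor (snurportin 1 IBB flanked by EYFP and cerulean), 50 nM, with compound 5 min, then 0.125 microM importin beta in PBS, 1 mM DTT, 0.02% Tween-20, 0.1% BSA. CFP/YFP ratio read after 45 min at room temperature; pre-read flags interference.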
# EPAC2 agonist: EPAC2 (human) agonism | Q8WZA2 | Potency, µM (top dose mostly 154 µM), without a hit: at the highest dose activation, usual class: activators | AID 720711 | EPAC2 activation, biochemical qHTS; response scale: 100% = 6.5 mM cAMP response | 360,000 tested, 0.079% active; further: nearly all actives have a fitted effect of over 50% in size
#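 Guanine nucleotide exchange by EPAC2 is measured as reduced fluorescence of BODIPY-GDP once it is released from 250 nM Rap1B. Plates are read kinetically for 30 min at room temperature; results are scaled to 6.5 mM cAMP.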
# EPAC1 antag: antagonists of human EPAC1. EPAC1 GEF assay, Rap1b-BODIPY-GDP exchange fluorescence. 360,000 tested, 0.14% active. AID 720709. Potency, µM (titrated, usually from 115 µM), for the others: at the top dose activity change, negative = inhibition, hits mostly inhibitors;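 further: plate controls were vehicle for no effect and positive control for full effect; nearly all actives have a fitted effect of over 50% in size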
# Rango release inh: inhibitors of RanGTP-induced Rango-importin beta complex dissociation | O95149+P62826 | Biochemical FRET Rango-importin beta, RanGTP-induced dissociation | Potency, µM (doses to about 46.1 µM), for the others: at the highest dose activity change, negative = inhibition | 340,000 tested, 0.071% active; calls by dose curve; further: % of control where 0% means no effect; nearly all actives have a fitted effect of over 45% in size
#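 Rango (0.1 uM)–importin beta (0.25 uM) complex; RanGTP-RCC1 trigger; 45 min RT; CFP/YFP FRET read.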
# EPAC1 ag: EPAC1 (human) agonism; O95398; EPAC1 agonist qHTS, biochemical assay; response scale: 100% = response to 6.5 mM cAMP; AID 720707; 360,000 tested, 0.073% active; Potency, µM (series often up to 154 µM), inactives show at the highest dose activation, usual class: activators; further: nearly all actives have a fitted effect of over 60% in size
#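 Nucleotide exchange assay: 100 nM EPAC1 with 250 nM Rap1B loaded with BODIPY-GDP and 50 uM GDP, room temperature. Fluorescence (480/540 nm) read every 5 min for 30 min; signal change normalized to 6.5 mM cAMP as full agonist.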
# * marks the source's active call; other numbers are inactive results; u = inconclusive; x = not tested or not shown; [ ] = another dose, or the depositor's remark. Unless noted, the call rests on the fitted dose curve; in most records, active means well fitted curve in the direction sought with a large enough effect; inconclusive means small, poorly fitted or top-dose-only effect, or another doubt; inactive means no such curve, though single readings can be large; an effect the other way counts as inactive or inconclusive. Potency means the concentration at half of the fitted maximal effect.
no.	structure	EPAC2 antagonist	Rango complex inh	EPAC2 agonist	EPAC1 antag	Rango release inh	EPAC1 ag
1	O=C(O)c1ccccc1NS(=O)(=O)c1ccc(N/N=C/c2ccc(O)c(O)c2)c([N+](=O)[O-])c1	56.2µM*	-0.8%	-24.5%	15.8µM*	13.8%	-14.5%
2	Cc1ccc(CN2CCC[C@]3(N[C@H](c4ccccc4)[C@@H]4C(=O)N(C)C(=O)[C@@H]43)C2=O)cc1	7.9%	x	7.9%	8.2%	x	-2.8%
3	CCCN(CC(=O)Nc1cc(Cl)ccc1Cl)C(=O)/C=C/c1ccco1	-4.1%	-1.9%	1.3%	-1.8%	0.8%	12.4%
4	Cc1nn(-c2ccccc2)c(C)c1NC(=O)COC(=O)[C@@H](NC(=O)c1ccccc1)C(C)C	-4.5%	4.8%	u	-14.6%	-1.8%	-1.9%
5	COc1ccc(C=NNc2ccc([N+](=O)[O-])cc2S(=O)(=O)Nc2ccccc2C(=O)O)cc1OC	-20.4%	u	-7.8%	50.1µM*	u	-10.2%
6	NS(=O)(=O)c1ccc(NC(=S)NCc2cccc(Cl)c2)cc1	-9.2%	-4.1%	1.8%	8.2%	-10.7%	-6.1%
7	N#Cc1sc2nc(-c3ccccc3)cc(-c3ccco3)c2c1N	-1.5%	u	-4.6%	35.5µM*	u	-5.3%
8	Cc1ccc(C)c(S(=O)(=O)Nc2ccc(C(=O)NCC(c3ccco3)N3CCCCC3)cc2)c1 (stereo not given)	-0.7%	-0.3%	11.4%	7.7%	5.6%	-8.9%
9	Cc1ccc(C)c(S(=O)(=O)Nc2ccc(C(=O)NCC(c3ccco3)N(C)C)cc2)c1 (stereo not given)	6.5%	2.6%	-5.8%	-10.6%	-11.5%	112µM*
10	CCOc1ccccc1NC(=O)C1CCN(c2nc(-c3ccc(OC)cc3)no2)CC1	1.6%	-5.2%	0.2%	61.4%	-9.3%	112µM*
11	O=C(CN1CCCCCC1)Nc1ccc(Oc2ccccc2)cc1	-9.9%	-2.6%	-0.6%	-2.7%	0.6%	3.8%
12	COc1cc(S(=O)(=O)N(Cc2cccs2)CC2CCCO2)ccc1-n1cnnn1 (stereo not given)	2.3%	4.7%	8.6%	8.1%	-2.9%	1.0%
13	O=S(=O)(NCc1ccccc1)c1ccc(S(=O)(=O)N(Cc2cccs2)CC2CCCO2)cc1 (stereo not given)	0.6%	u	39.8µM*	2.0%	u	13.4%
14	CCOc1ccc(/C=N/OC(C)C(=O)NCc2ccc3c(c2)OCO3)cc1 (stereo not given)	3.2%[57.1 µM]	-0.3%	18.0%	-25.5%	-3.9%	8.0%
15	CCCCC(=O)N(C)c1c(CC)nc2c(OCc3ccc(C(F)(F)F)cc3)cccn12	20µM*	x	-0.2%	-22.6%	x	-14.5%
16	CCOC(=O)N(C)c1c(CC)nc2c(OCc3ccc(C(F)(F)F)cc3)cccn12	35.5µM*	x	-3.8%	u	x	-14.3%
17	CCSc1nnc(-c2ccncc2)n1Cc1ccccc1	6.4%	-2.3%	4.7%	u	-11.5%	0.0%
18	Cn1c(=O)[nH]c(=O)c2c1nc(N/N=C/c1ccncc1)n2Cc1ccc(F)cc1	-1.1%	-1.7%	0.5%	0.0%	-0.6%	-4.8%
19	COCC(=O)Nc1nnc(SCC(=O)N2CCCCC2)s1	4.3%	-0.1%	0.9%	-5.0%	-18.5%	3.3%
20	Cc1ccnc(NC(=O)c2cc3cc(F)ccc3s2)c1	-13.1%	-2.8%	2.6%	-11.9%	0.4%	-1.5%

# The list goes on, overlapping the part above by five compounds.
no.	structure	EPAC2 antagonist	Rango complex inh	EPAC2 agonist	EPAC1 antag	Rango release inh	EPAC1 ag
16	CCOC(=O)N(C)c1c(CC)nc2c(OCc3ccc(C(F)(F)F)cc3)cccn12	35.5µM*	x	-3.8%	u	x	-14.3%
17	CCSc1nnc(-c2ccncc2)n1Cc1ccccc1	6.4%	-2.3%	4.7%	u	-11.5%	0.0%
18	Cn1c(=O)[nH]c(=O)c2c1nc(N/N=C/c1ccncc1)n2Cc1ccc(F)cc1	-1.1%	-1.7%	0.5%	0.0%	-0.6%	-4.8%
19	COCC(=O)Nc1nnc(SCC(=O)N2CCCCC2)s1	4.3%	-0.1%	0.9%	-5.0%	-18.5%	3.3%
20	Cc1ccnc(NC(=O)c2cc3cc(F)ccc3s2)c1	-13.1%	-2.8%	2.6%	-11.9%	0.4%	-1.5%
21	O=C(N/N=C/c1ccc(-c2ccc(Cl)c(C(=O)O)c2)o1)c1cc2c(ccc3ccccc32)o1	17.0%	u	27.6%	39.8µM*	u	10.5%
22	CCCOc1ccccc1C(=O)Nc1ccc(S(=O)(=O)N2CCN(C)CC2)cc1	0.8%	-3.2%	7.1%	13.9%	0.4%	-0.3%
23	O=C(O)CN1C(=O)/C(=C/C=C/c2ccccc2)SC1=S	-13.6%[57.1 µM]	1.3%	10.7%	1.4%	-20.0%	8.5%
24	CC(=O)c1ccc(NC(=O)CN2C(=O)/C(=C/C=C/c3ccccc3)SC2=S)cc1	6.0%	29.1µM*	-52.9%	2.1%	20.2%	-48.8%
25	O=C(CCN1C(=O)/C(=C/c2ccco2)SC1=S)Nc1ccc(C(=O)O)c(O)c1	8.3%	-0.8%	0.2%	-22.5%	7.3%	-0.2%
26	CC(/C=C1\SC(=S)N(CCC(=O)Nc2cccc(C(=O)O)c2)C1=O)=C\c1ccccc1	u	-3.6%	6.2%	79.4µM*	-25.3%	27.7%
27	COc1ccccc1/C=C1\SC(=S)N(CCC(=O)Nc2ccc(C(=O)O)c(O)c2)C1=O	-10.0%	0.6%	6.7%	50.1µM*	7.0%	3.7%
28	CCCCCOC(=O)C1C2C=CC3(CN(c4ccccc4C)C(=O)C13)O2 (stereo not given)	13.7%[57.1 µM]	-3.1%	-2.8%	19.8%	0.2%	-12.0%
29	COc1cccc(-c2nc(SCC(=O)Nc3nc(-c4ccccc4)c(C)s3)[nH]c(=O)c2C#N)c1	25.1µM*	0.5%	-2.5%	u	-4.5%	2.1%
30	COC(=O)c1c(C(=O)OC)c(-c2ccc(C(C)(C)C)cc2)n2c1CS(=O)C2 (stereo not given)	15.7%	0.2%	-1.0%	-4.5%	-10.4%	-1.6%
31	CCN1C(=O)C(=CC=CN(C)c2ccccc2)SC1=S	-2.7%	x	89.1µM*	34.7%	x	u
32	CC1=CCC[C@@H]2[C@@](C)(CC/C(C)=C/C(=O)O)[C@H](C)CC[C@@]12C	31.6µM*	1.2%	-8.9%	u	-4.5%	-18.8%
33	C[C@@H]1CC[C@@]23COC(=O)C2=CCC[C@@H]3[C@@]1(C)CC/C(=C/CO)CO	5.8%	-1.7%	-1.1%	-20.1%	-0.8%	-16.4%
34	COc1cccc(-c2ccc3ncnc(N(C)Cc4ccco4)c3c2)c1	31.6µM*	-2.1%	10.6%	-12.0%	-8.1%	5.3%
35	COc1cccc(-c2ccc3ncnc(NCc4ccc5c(c4)OCO5)c3c2)c1	11.2%	-4.9%	13.4%	-8.9%	-7.8%	-15.6%
36	O=NNc1nc2ccccc2n1Cc1ccccc1	-7.6%	2.4%	14.3%	-6.1%	-0.4%	6.9%
37	CCOCCCNc1nc2c(C)cccn2c(=O)c1/C=C1\SC(=S)N(CC(C)C)C1=O	-2.4%	13.6%	112µM*	1.5%	11.3%	8.5%
38	CCN1/C(=C/c2ccc3cccc(C)c3[n+]2CC)Sc2ccccc21	-2.9%	51.7µM*	-12.9%	-15.1%	5.5%	-23.6%
39	Cc1cc2nn(-c3ccc(F)cc3)nc2cc1N	-9.1%	u	-0.2%	-2.2%	9.2µM*	8.5%
40	COc1cc(S(=O)(=O)Nc2c(C)cc(C)cc2C)ccc1Cl	3.0%	-1.9%	-12.0%	-1.0%	0.2%	-2.8%
41	COc1cc(S(=O)(=O)Nc2ccccc2C)ccc1Cl	28.2µM*	-0.4%	5.7%	10.3%	-7.4%	-1.1%
